Measurements as given in patent publication US20230042095A1 (AstraZeneca / MedImmune, published 2023).

Amino acid sequences for entries named in this document (tags omitted). Residues count along the entry.
UniProt P15018, 23-202 limits assumed: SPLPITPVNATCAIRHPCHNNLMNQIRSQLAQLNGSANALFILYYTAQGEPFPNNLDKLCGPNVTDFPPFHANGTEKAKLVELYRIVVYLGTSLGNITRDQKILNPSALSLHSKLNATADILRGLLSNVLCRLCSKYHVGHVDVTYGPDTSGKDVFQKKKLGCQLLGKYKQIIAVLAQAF

Biological target: T1, human LIF (source not stated) (human, UniProt P15018 23-202)
T1 construct: also called hLIF; recombinant human LIF protein
Test: SPR (Biacore 2002), hLIF amine-coupled to chip, antibody as analyte, Langmuir 1:1 fit

Binder	Kd [nM]
H1L3 (humanized 5D8 variant) (antibody, V domains shown, also called D (H1L3)) VH: EVQLVESGGGLVKPGGSLKLSCAASGFTFSHAWMHWVRQAPGKGLEWVAQIKAKSDDYATYYAESVKGRFTISRDDSKNTLYLQMNSLKTEDTAVYYCTCWEWDLDFWGQGTLVTVSS VL: DIVMTQTPLSLSVTPGQPASISCRSSQSLLDSDGHTYLNWLLQKPGQPPQLLIYSVSNLESGVPNRFSGSGSGTDFTLKISRVEAEDVGLYYCMQATHAPPYTFGGGTKVEIKR	0.054
H2L3 (humanized 5D8 variant) (antibody, V domains shown, also called H (H2L3)) VH: QVQLQESGGGLVKPGGSLRLSCAASGFTFSHAWMHWVRQAPGKGLEWVGQIKAKSDDYATYYAESVKGRFTISRDDSKNTLYLQMNSLKTEDTAVYYCTCWEWDLDFWGQGTMVTVSS VL: DIVMTQTPLSLSVTPGQPASISCRSSQSLLDSDGHTYLNWLLQKPGQPPQLLIYSVSNLESGVPNRFSGSGSGTDFTLKISRVEAEDVGLYYCMQATHAPPYTFGGGTKVEIKR	0.136
